Measured values from EP4843994A1, “NOVEL PEPTIDE HAVING MUSCLE FORMATION-PROMOTING ACTIVITY, ANTI-OBESITY ACTIVITY AND ANTI-DIABETIC ACTIVITY AND USES THEREOF” (dated 2026).

Assays:
HepG2 cells [1] = experiment: Expression of insulin resistance and sensitivity related proteins in hepatocytes (Western blot); details: 500 µM oleic acid (insulin resistance), peptide 5 µM, 50 µM, 48 hours
Method: HepG2 cells (human-derived hepatocytes) were cultured in DMEM medium containing 1% P/S and 10% FBS. When cell confluency reached approximately 70 to 80%, cells were seeded into a 12-well culture plate at a concentration of 2 x 10^5 cells/ml. Subsequently, when cell confluency in the 12-well culture plate reached approximately 70 to 80%, the medium was replaced with serum-free DMEM medium. After 4 hours, insulin resistance was induced by replacing the medium with serum-free DMEM (1% BSA) supplemented with 500 µM oleic acid (Sigma, St. Louis, MO, USA). After induction for 24 hours, the cells were replaced with serum-free DMEM (1% BSA) supplemented with 500 µM oleic acid (Sigma, St. Louis, MO, USA) and peptides (5 µM, 50 µM), and cultured for 48 hours. After culture, lysis buffer was added to lyse the cells, and the cell lysate was centrifuged at 12,000 rpm and 4°C for 30 minutes to obtain the protein. The obtained protein was quantified using a BCA kit. The protein was electrotransferred onto a membrane after performing SDS-PAGE (sodium dodecyl sulfate-polyacrylamide gel electrophoresis). After the membrane onto which the protein had been electrotransferred was blocked by treatment with 5% skim milk, it was treated with the primary antibody and incubated overnight at 4°C. The primary antibodies used are as follows: anti-pmTOR antibody (Cell signaling Technology, USA); anti-pJNK antibody (Santa Cruz, USA); anti-GLUT4 antibody (Invitrogen, USA); anti-SIRT1 antibody (Cell signaling Technology, USA); anti-pAMPKα antibody (Cell signaling Technology, USA); anti-β-actin antibody (Santa Cruz, USA). The reactant was washed with PBS-T, then reacted with secondary antibodies (Peroxidase-conjugated AffiniPure Goat Anti-Rabbit IgG (H+L), Jackson immunoResearch, USA; Peroxidase-conjugated AffiniPure Goat Anti-Mouse IgG (H+L), Jackson immunoResearch, USA) at room temperature for 1 hour, washed again with PBS-T, and then visualized by treatment with a Western detection reagent (Elpis Biotech, Daejeon, Korea) using Gel Doc (Bio-Rad, Hercules, CA, USA).
Through the above experiment, it was aimed to determine whether insulin sensitivity is induced by treating HepG2 cells, in which an insulin resistance environment was induced by oleic acid treatment, with peptides. Whether insulin sensitivity was induced was confirmed by analyzing the expression levels of factors related to insulin resistance or sensitivity using Western blot.

HepG2 cells [2] = experiment: Expression of fatty acid oxidation-related genes in hepatocytes (RT-PCR); details: 500 µM oleic acid, peptide 5 µM, 50 µM, 48 hours
Method: HepG2 cells (human-derived hepatocytes) were cultured in DMEM medium containing 1% P/S and 10% FBS. When cell confluency reached approximately 70 to 80%, cells were seeded into a 12-well culture plate at a concentration of 2 x 10^5 cells/ml. Subsequently, when cell confluency in the 12-well culture plate reached approximately 70 to 80%, the medium was replaced with serum-free DMEM medium. After 4 hours, lipid accumulation was induced by replacing the solution with serum-free DMEM (1% BSA) supplemented with 500 µM oleic acid (Sigma, St. Louis, MO, USA). After inducing lipid accumulation for 24 hours, the solution was replaced with serum-free DMEM (1% BSA) supplemented with 500 µM oleic acid (Sigma, St. Louis, MO, USA) and peptides (5 µM, 50 µM), and cultured for 48 hours. After culture, cells were harvested and RNA was extracted using Trizol (Thermo Fisher Scientific, USA). The extracted RNA was synthesized to obtain DNA complementary to the RNA using TOPScript™ RT DryMIX (enzynomics, Korea), and then polymerase chain reaction (PCR) was performed on the genes of fatty acid oxidation-related markers using TOPsimple™ DryMIX-nTaq (enzynomics, Korea). Subsequently, the reaction products were run on a 1.5% agarose gel to compare the mRNA expression levels of the aforementioned markers for each sample. The primer sequences for the genes used in the PCR are listed in Table 5 below, and the GAPDH gene was used as a control.

3T3-L1 cells = experiment: Expression of insulin resistance and sensitivity related genes in oleic acid-treated adipocytes (RT-PCR); details: 3T3-L1 adipocytes; 350 µM oleic acid (insulin resistance environment); peptide 5 µM, 50 µM; 48 hours
Method: 3T3-L1 cells (preadipocytes, American Type Culture Collection) were cultured in DMEM medium containing 2% BCS (Bovine Calf Serum) (Welgene, Korea). To differentiate 3T3-L1 cells into adipocytes, they were seeded into 12-well culture plates at a concentration of 1 x 10^5 cells/well, and when they became confluent (Day=2), the medium was changed once more and cultured for an additional 48 hours. After 48 hours (Day=0), the culture medium was replaced with DMEM medium containing 10% FBS, 1% P/S, 1 µg/ml insulin (Sigma, USA), 0.5 mM isobutylmethylxanthine (IBMX) (Sigma, USA) and 1 µM Dexamethasone (Sigma, USA) and cultured. After 2 days (Day=2), the medium was replaced with DMEM containing 10% FBS, 1% P/S, and 1 µg/ml insulin, and cultured. After 3 days (Day=5), the medium was replaced with one containing only 10% FBS and 1% P/S, and an insulin resistance environment was induced by adding 350 µM oleic acid (Sigma, St. Louis, MO, USA) for 24 hours. After 24 hours of induction, the medium was replaced with DMEM (10% FBS, 1% BSA) supplemented with 350 µM oleic acid (Sigma, St. Louis, MO, USA) and peptides (5 µM, 50 µM), and cultured for 48 hours. After culture, cells were harvested, and RNA was extracted using Trizol (Thermo Fisher Scientific, USA). The extracted RNA was synthesized to obtain DNA complementary to the RNA using TOPScript™ RT DryMIX (enzynomics, Korea), and then polymerase chain reaction (PCR) was performed on genes of markers related to insulin resistance or sensitivity using TOPsimple™ DryMIX-nTaq (enzynomics, Korea). Subsequently, the reaction products were run on a 1.5% agarose gel to compare the mRNA expression levels of the aforementioned markers for each sample. The primer sequences for the genes used in the PCR are listed in Table 6 below, and the GAPDH gene was used as a control.
Through the above experiment, it was aimed to determine whether insulin resistance is inhibited and insulin sensitivity is induced in 3T3-L1 adipocytes in which an insulin resistance environment was induced by oleic acid treatment by treating them with a peptide. The expression levels of relevant factors regarding the inhibition of insulin resistance or the induction of insulin sensitivity were confirmed via Western blot. As a result of the experiment, treatment with oleic acid in 3T3-L1 cells increased the expression level of p70S6K, which is an insulin resistance-related factor, and when the cells were treated with a peptide, the increased expression level of p70S6K decreased again. […]

C[C@@H](O)[C@H](NC(=O)CNC(=O)[C@@H](N)Cc1c[nH]cn1)C(=O)N[C@@H](Cc1ccc(O)cc1)C(=O)O
decreased again: expression level of pJNK (HepG2 cells [1]) | expression level of pmTOR (HepG2 cells [1]) | expression level of p70S6K (gene) (3T3-L1 cells)
increased again: expression level of GLUT4 (HepG2 cells [1]) | expression level of SIRT1 (HepG2 cells [1]) | expression level of pAMPKα (HepG2 cells [1]) | expression level of CPT1 (gene) (HepG2 cells [2]) | expression level of PGC1α (gene) (HepG2 cells [2]) | expression level of PPARα (gene) (HepG2 cells [2]) | expression level of AMPKα (gene) (3T3-L1 cells) | expression level of GLUT4 (gene) (3T3-L1 cells) | expression level of SIRT1 (gene) (3T3-L1 cells)
